# Literature values in patent US20110184379A1, “METHOD AND SYSTEM TO DEFINE PATIENT SPECIFIC THERAPEUTIC REGIMENS BY MEANS OF PHARMACOKINETIC AND PHARMACODYNAMIC TOOLS” (MEDTRONIC, INC., priority 2008, published 2011).
# Details: subcutaneously
substance,measurement,value
interferon-α,dose administered without adverse reactions,up to 300 million IU/m^2
